Structures are written as SMILES. The list shows a part of the results, in another mix than the full data. The source made the active and inactive calls.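 The calls were made as follows: active = inhibition or corrected inhibition above about 18%, plus a signal ratio from 0.5 to 1.5 (limit read from the data, passing the limit was not always enough); inactive = the rest.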

Chains of the proteins cited; added tags and fusions are not shown.
UniProt O14786, whole entry: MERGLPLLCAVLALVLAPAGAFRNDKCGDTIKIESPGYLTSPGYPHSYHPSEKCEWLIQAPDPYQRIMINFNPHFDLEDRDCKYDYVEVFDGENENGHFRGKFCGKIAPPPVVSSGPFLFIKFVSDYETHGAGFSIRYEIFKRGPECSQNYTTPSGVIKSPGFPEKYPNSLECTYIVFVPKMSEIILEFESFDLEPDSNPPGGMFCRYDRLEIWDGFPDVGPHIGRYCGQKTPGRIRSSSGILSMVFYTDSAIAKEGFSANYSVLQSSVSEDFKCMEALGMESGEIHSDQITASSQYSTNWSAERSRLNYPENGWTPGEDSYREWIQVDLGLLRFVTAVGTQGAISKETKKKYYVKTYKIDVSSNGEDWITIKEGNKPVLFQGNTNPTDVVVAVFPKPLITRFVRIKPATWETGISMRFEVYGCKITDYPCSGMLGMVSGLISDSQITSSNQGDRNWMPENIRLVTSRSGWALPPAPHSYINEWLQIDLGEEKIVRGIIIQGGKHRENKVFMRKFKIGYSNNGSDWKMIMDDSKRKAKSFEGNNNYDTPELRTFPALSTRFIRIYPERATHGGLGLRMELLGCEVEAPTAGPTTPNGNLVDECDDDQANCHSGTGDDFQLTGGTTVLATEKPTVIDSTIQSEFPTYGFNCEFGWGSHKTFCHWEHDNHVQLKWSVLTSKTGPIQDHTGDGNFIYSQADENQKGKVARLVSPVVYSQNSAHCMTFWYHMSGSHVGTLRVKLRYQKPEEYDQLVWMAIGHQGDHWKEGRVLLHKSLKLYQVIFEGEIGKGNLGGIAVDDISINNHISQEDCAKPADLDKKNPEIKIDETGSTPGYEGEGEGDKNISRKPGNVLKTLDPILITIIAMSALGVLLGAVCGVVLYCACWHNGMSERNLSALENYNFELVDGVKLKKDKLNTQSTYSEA

This assay concerns the target Neuropilin-1 (Homo sapiens) (UniProt O14786). Briefly: NRP-1/CendR peptide interaction modulators – biochemical, fluorescence polarization, uHTS, primary screen (AID 602438). Particulars: FAM-RPARPAR peptide binding to NRP-1, fluorescence polarization; at 25 µM; stronger effect = higher value. (Polarisation of emitted light reports the rotation of a fluorescent probe.)
In general, inhibition refers to the drop in the measured response relative to a control, in per cent. For the compound `COc1ccccc1OP(C)(=O)Nc1cccc(Br)c1` (stereo not given), the inhibition is inactive: 15.6%.

Regarding `Cc1cc(C)cc(OP(C)(=O)Nc2ccc(C)cc2C)c1` (stereo not given), the inhibition was inactive: -6.3%.

For the compound `CCOC(=O)c1ccc(NP(C)(=O)Oc2cc(C)cc(C)c2)cc1` (stereo not given), the inhibition is inactive: 15.6%.

Consider `CP(=O)(Nc1cccc(Br)c1)Oc1ccccc1` (stereo not given), for which the inhibition is inactive: -17.6%.

With `Cc1cc(C)cc(OP(C)(=O)Nc2ccccn2)c1` (stereo not given), the inhibition is inactive: 2.8%.

In the case of `Cc1ccc(C)c(NP(C)(=O)Oc2ccccc2)c1` (stereo not given), the inhibition was inactive: 0.4%.

Turning to `O=C(O)c1cccc(Nc2c([N+](=O)[O-])cc([N+](=O)[O-])cc2[N+](=O)[O-])c1`, the inhibition was inactive: 4.1%.

Take `CC1=NCCc2c1[nH]c1ccccc21.O=[N+]([O-])c1cc([N+](=O)[O-])c(O)c([N+](=O)[O-])c1`: the inhibition was inactive: -16.9%.

On to `CCOC(=O)C(CC)C1=NC(C)(C)Cc2ccccc21.O=[N+]([O-])c1cc([N+](=O)[O-])c(O)c([N+](=O)[O-])c1` (stereo not given), for which the inhibition was inactive: -11%.

On to `O=[N+]([O-])c1cc([N+](=O)[O-])c(Nc2nnnn2CCO)c([N+](=O)[O-])c1`, for which the inhibition was inactive: 11.2%.

On to `CC1=C2N=C(C=C3N=C(C(C)=C4[N-][C@@](C)([C@@H]5N=C1[C@](C)(CCC(=O)NC[C@@H](C)OP(=O)([O-])O[C@H]1[C@@H](O)[C@@H](n6cnc7cc(C)c(C)cc76)O[C@@H]1CO)[C@H]5CC(N)=O)[C@@](C)(CC(N)=O)[C@@H]4CCC(N)=O)[C@@](C)(CC(N)=O)[C@@H]3CCC(N)=O)C(C)(C)[C@@H]2CCC(N)=O.[C-]#N.[Co+3]`, for which the inhibition is active: 21.9%.

For `CN1CCCCC1COC(=O)C1(O)c2ccccc2CCc2ccccc21` (stereo not given), the inhibition was inactive: -6.6%.

Regarding `COc1ccccc1OP(C)(=O)Nc1c(C)cccc1C` (stereo not given), the inhibition was inactive: 8.6%.

In the case of `CP(=O)(Nc1ccc(SC(F)(F)F)cc1)Oc1ccccc1` (stereo not given), the inhibition is inactive: 4.3%.

As to `CCCOc1ccc(NP(C)(=O)Oc2ccc(Cl)cc2)cc1` (stereo not given), the inhibition is inactive: 13.4%.

As for `COc1ccc(-c2ccccn2)cc1.O=[N+]([O-])c1cc([N+](=O)[O-])c(O)c([N+](=O)[O-])c1`, the inhibition is inactive: -9.2%.

As to `O=[N+]([O-])c1cc([N+](=O)[O-])c(-n2nnc3ccccc32)c([N+](=O)[O-])c1`, the inhibition was inactive: 7.1%.

For `CN(Cc1cccnc1)C(=O)COc1ccc(Cl)c(Cl)c1.O=[N+]([O-])c1cc([N+](=O)[O-])c(O)c([N+](=O)[O-])c1`, the inhibition is inactive: -3.5%.

Regarding `O=[N+]([O-])c1cc([N+](=O)[O-])c(-c2cnn(-c3ccccc3)c2)c([N+](=O)[O-])c1`, the inhibition was inactive: 11.7%.

With `Cc1nc2ccc3ccccc3c2s1.O=[N+]([O-])c1cc([N+](=O)[O-])c(O)c([N+](=O)[O-])c1`, the inhibition was inactive: 3.9%.

As to `CP(=O)(Oc1ccccc1)OC(c1ccccc1)C(F)(F)F` (stereo not given), the inhibition was inactive: -6.9%.

As to `CP(=O)(Nc1ccc(SC(F)(F)F)cc1)Oc1ccc(Cl)cc1` (stereo not given), the inhibition was inactive: 4.2%.

In the case of `Cc1ccc(Nc2c([N+](=O)[O-])cc([N+](=O)[O-])cc2[N+](=O)[O-])cc1`, the inhibition is active: 26.5%.

Regarding `Cc1cccc(C)c1OP(C)(=O)Nc1ccc(SC(F)(F)F)cc1` (stereo not given), the inhibition is inactive: 14.6%.

In the case of `Cc1cc(C)cc(OP(C)(=O)Nc2ccc(SC(F)(F)F)cc2)c1` (stereo not given), the inhibition is active: 32.1%.

Take `CCc1ccc(OP(C)(=O)N2CCN(c3ccc([N+](=O)[O-])cc3)CC2)cc1` (stereo not given): the inhibition was inactive: 0.6%.

With `CP(=O)(NC(=O)Nc1ccccc1)Oc1ccccc1` (stereo not given), the inhibition was inactive: 5.9%.

Consider `CCOP(C)(=S)SCC(=O)NC(C)C(=O)O` (stereo not given), for which the inhibition is inactive: 3.3%.

Take `O=[N+]([O-])c1cc([N+](=O)[O-])c(O)c([N+](=O)[O-])c1.c1ccc(Oc2ccncc2)cc1`: the inhibition is inactive: -2.6%.

Turning to `CCOC(=O)c1ccc(NP(C)(=O)Oc2ccc(OC)cc2)cc1` (stereo not given), the inhibition is inactive: 13.2%.

On to `CP(=O)(Nc1ccccn1)Oc1ccc(Cl)cc1` (stereo not given), for which the inhibition is inactive: 2.9%.

On to `CP(=S)(Nn1cnnc1)Oc1ccccc1` (stereo not given), for which the inhibition was inactive: 5.4%.

For the compound `COc1ccccc1OP(C)(=O)Nc1ccccc1` (stereo not given), the inhibition was inactive: 12.2%.

As for `CP(=O)(Nc1ccccc1Br)Oc1ccccc1` (stereo not given), the inhibition is inactive: -5.9%.

With `O=[N+]([O-])c1cc([N+](=O)[O-])c(Nc2cccnc2)c([N+](=O)[O-])c1`, the inhibition is inactive: 2%.

With `Cc1cccc(C)c1OP(C)(N)=O` (stereo not given), the inhibition is inactive: 16.1%.

As to `CC(C)(C)c1ccc(OP(C)(=O)Nc2ccc(SC(F)(F)F)cc2)cc1` (stereo not given), the inhibition was inactive: -20.5%.

Take `O=[N+]([O-])c1ccc2c(c1)C=Nc1ccccc1O2`: the inhibition is inactive: 1.3%.

In the case of `CCOC(=O)c1ccc(NP(C)(=O)Oc2ccccc2)cc1` (stereo not given), the inhibition is inactive: 1.2%.

For `Cc1ccc(NP(C)(=O)Oc2ccccc2)c(C)c1` (stereo not given), the inhibition is inactive: -7.5%.

Regarding `COc1ccccc1OP(C)(=O)Nc1ccc(C)cc1` (stereo not given), the inhibition is inactive: 5.6%.

As for `COc1ccc(OP(C)(=O)Nc2cccc(F)c2)cc1` (stereo not given), the inhibition is inactive: 4.1%.

As for `COc1ccccc1OP(C)(=O)Nc1cc(Cl)ccc1C` (stereo not given), the inhibition was inactive: 7.9%.

For the compound `Cc1cc(C)cc(OP(C)(N)=O)c1` (stereo not given), the inhibition is inactive: 1.9%.

Consider `CCN(CC)CCCOC(=O)C(O)(c1ccccc1)c1ccccc1`, for which the inhibition was inactive: -9.3%.

For the compound `COc1ccccc1-c1ccccn1.O=[N+]([O-])c1cc([N+](=O)[O-])c(O)c([N+](=O)[O-])c1`, the inhibition was inactive: -7.1%.

Take `COc1ccccc1OP(C)(=O)Nc1ccc(Br)cc1` (stereo not given): the inhibition is inactive: -1.3%.

For `CN(C)CCOC(=O)C(O)(c1ccccc1)C1CCCC1` (stereo not given), the inhibition was inactive: 0.3%.

For the compound `COc1ccc(OP(C)(=O)Nc2ccccn2)cc1` (stereo not given), the inhibition is inactive: -5.5%.

`O=[N+]([O-])c1cc([N+](=O)[O-])c(Nc2ccccn2)c([N+](=O)[O-])c1`: the inhibition was inactive: 13.4%.

Turning to `Cc1c(NP(C)(=O)Oc2ccc(C(C)C)cc2)c(=O)n(-c2ccccc2)n1C` (stereo not given), the inhibition is inactive: 0.2%.

Regarding `CCc1ccc(OP(C)(=O)O)cc1`, the inhibition is inactive: -2.3%.

In the case of `COc1ccccc1OP(C)(=O)Nc1ccc(C)cc1C` (stereo not given), the inhibition is inactive: -0.1%.

In the case of `CP(=O)(Nc1ccccn1)Oc1ccccc1` (stereo not given), the inhibition was inactive: -9.6%.

In the case of `Cc1cc(C)cc(OP(C)(=O)Nc2cccc(C(F)(F)F)c2)c1` (stereo not given), the inhibition was inactive: 6.5%.

(Values after PubChem BioAssay AID602438 (Sanford-Burnham Center for Chemical Genomics, 2012).)
